## Binding of CDR-mutated scFvs to a peptide of the spike HR2 region

Reference: Engelhart et al. 2022, doi:10.1038/s41597-022-01779-4. File: FLAb, binding data.

Binding partner: SARS-CoV-2 spike HR2 peptide, sequence PDVDLGDISGINAS.

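The starting antibody came from a phage panning campaign against this peptide. In library AAYL50, one, two or three CDR residues were substituted; doubles and triples were drawn at random. The assay is AlphaSeq: two haploid yeast populations carry antibody and antigen on their surface. Binding brings cells together so that they mate, and sequencing counts the barcode pairs among the diploids. The ratio of observed to expected reads was calibrated, replicate by replicate, on BCL2-family standards whose Kd was known from biolayer interferometry. The assay was run in three technical replicates.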

Parent: Ab-14, a human scFv built as VH, the linker GGGGSGGGGSGGGGS, VL. Only the CDRs of the light chain vary.
VH: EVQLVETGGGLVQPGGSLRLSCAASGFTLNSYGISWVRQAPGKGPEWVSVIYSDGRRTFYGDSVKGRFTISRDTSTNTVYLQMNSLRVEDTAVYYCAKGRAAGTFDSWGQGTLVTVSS
VL: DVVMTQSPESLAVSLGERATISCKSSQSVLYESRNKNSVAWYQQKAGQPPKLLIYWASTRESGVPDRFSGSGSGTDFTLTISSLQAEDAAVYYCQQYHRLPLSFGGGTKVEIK

Each variant is given by its three light chain CDRs, as the data file delimits them; those of the parent are KSSQSVLYESRNKNSVA, WASTRES, QQYHRLPLS. Values are apparent Kd, the geometric mean of the replicates that gave a signal; lower means stronger binding. Where no diploid with the target was found in any replicate, the entry reads "nd": below detection, most likely a poor binder, though not proof of it. As a blank, each scFv also met three strains without target: over library AAYL50, 18% of these pairings were detected, typically at 15 µM and seldom below 970 nM. For each scFv, signals with the empty controls are counted beside the result.

CDR-L1	CDR-L2	CDR-L3	Kd	detected	signal with controls
KSSQSVLYCSRSKNSVA	WASTYES	QQYHRLPLS	67 µM	2/3	6/9
KSSQSVLYESRNKTFVA	WASTRES	QQYSRLPLS	21 µM	2/3	0/9
KSSQSVLYESRNKNSVA	WASTRES	QKYHKLLLS	31 µM	1/3	4/9
KSSQSVCYESRNKNSVA	WAGERES	QQYHRLPLS	11 nM	3/3	0/9
KSSQSVLYESRDKNLVA	WASTRES	QQYIRLPLS	nd	0/3	0/9
MSSQSVLYESRNKNSVA	WESTRSS	QQYHRLPLS	91 nM	2/3	0/9
KSSQSVLYESRNKASVA	WGSTRES	QQYHRLPLS	2.6 nM	3/3	1/9
KSSQSVLYESRNKNECA	WASTRES	QMYHRLPLS	nd	0/3	0/9
KSSQSVLYESRNVNSVA	WKSTRES	QQYHRLPLS	970 nM	3/3	7/9
KSSQSVAYESRNKNSVA	WASTRES	QQYHVLPLS	nd	0/3	0/9
KSSQSTLYESRNKNSVA	EASTRES	QQYHRRPLS	14 µM	2/3	4/9
TSSQSVLLQSRNKNSVA	WASTRES	QQYHRLPLS	1.9 µM	1/3	1/9
KSSQSWLYESRNKNVLA	WASTRES	QQYHRLPLS	nd	0/3	0/9
KSSVSVLYESRNKNSVA	WASTRES	QYYHALPLS	740 nM	3/3	6/9
MSSQSVLYESRNFNSVY	WASTRES	QQYHRLPLS	nd	0/3	0/9
KSSQSVLYESRRKNSVA	KARTRES	QQYHRLPLS	nd	0/3	0/9
KSSQSVLYEARCKNSVA	WASTRES	QQSHRLPLS	20 µM	2/3	4/9
KSSQSQLYESRNKNSVA	WALTRES	QQYHRLRLS	1.9 µM	3/3	4/9
KSSQSVLDESRNKNSVA	WASTRES	ATYHRLPLS	2.7 nM	3/3	1/9
KSSQSVLYESLWKNSVA	WASTRES	QQYHRAPLS	140 nM	3/3	1/9
KSSDSVLYESRNKNSVA	WASTRES	QQYVRLPCS	930 nM	3/3	3/9
KSSQSVLYESRNKNSVA	WASTRES	QQDHRAPLA	nd	0/3	1/9
KSSQSVLYESRNKNYVI	WASTRES	QQSHRLPLS	nd	0/3	1/9
KSSQSVLYESRIKNSVA	WASTRES	QAAHRLPLS	nd	0/3	0/9
KSSQSVLGESRNKNSVA	WAATRES	QQYHRLMLS	nd	0/3	1/9
KSSQSVLYEFRNKNSVV	WASTRES	QQYHRLPES	nd	0/3	1/9
KSSQSVLYESDNKNSVA	WASTIES	QQYHRLPLS	120 nM	3/3	0/9
KSSQSVQTESRNINSVA	WASTRES	QQYHRLPLS	7.1 nM	3/3	0/9
KSSQSVLYESRYRNSVG	WASTRES	QQYHRLPLS	nd	0/3	1/9
KSSQSVLRESRNKCSFA	WASTRES	QQYHRLPLS	82 µM	2/3	8/9
KSSQSVLYESRPKNWVA	WACTRES	QQYHRLPLS	2.0 µM	1/3	1/9
KSSQSVLFESRNKNSVA	WASTRES	QQRHHLPLS	370 nM	3/3	0/9
KRSQSVLYESRNKNSVA	WASTRMS	QQYHRGPLS	nd	0/3	0/9
KSVQSVLYESRNKNSVA	WASTRES	QQYCWLPLS	2.9 µM	3/3	5/9
KSQTSVLYESRNKNSVA	WASTREI	QQYHRLPLS	6.4 nM	3/3	0/9
KSSQSVLYESRNKNSVA	IASTRES	VQYHRLPDS	nd	0/3	1/9
KSSQSVLYISRNKNVVA	WASTRES	QQMHRLPLS	nd	0/3	0/9
KSSQSVLYASRNKRSVA	WASYRES	QQYHRLPLS	290 nM	3/3	2/9
PSSDSVLYESRNKNSVA	WASTRES	QQEHRLPLS	5.0 µM	3/3	3/9
KSSQSVLYESRNKNSVA	WASTYES	QQYHRLTLS	nd	0/3	1/9
KSSQSVLYESRNKNSVA	WASTREK	QQYHRFPLS	78 µM	1/3	3/9
KSSQRVLYESRIKNSVA	WASTRES	QQYHRLPLS	480 nM	3/3	0/9
KSSQSVLYESRNKNSCA	AASTREW	QQYHRLPLS	2.5 nM	3/3	3/9
HSSQSVLGESRNKNSVA	WASTRIS	QQYHRLPLS	23 nM	3/3	5/9
KSSQMVLYESRNKNSVA	WLSTLES	QQYHRLPLS	590 µM	1/3	3/9
KSSQQYLSESRNKNSVA	WASTRES	QQYHRLPLS	5.0 nM	3/3	0/9
KSSPSVLYESRNVNSVN	WASTRES	QQYHRLPLS	380 µM	1/3	4/9
KSSQSVLYESRNHNSVA	TASSRES	QQYHRLPLS	450 nM	3/3	3/9
KSSQSVLYESRNYNSVA	WASTYES	QEYHRLPLS	nd	0/3	3/9
KSSQSVLYEIRNKNSVA	WKSTRGS	QQYHRLPLS	13 µM	2/3	2/9
YSSQSVLYESRNKNSVA	WTSTRES	QQYERLPLS	42 nM	3/3	1/9
KMSQSVLYESRNKNSVA	WASTRES	QQYHRLKLS	1.2 nM	3/3	2/9
KSSQSVLYESRNSNSVA	WASTRSS	TQYHRLPLS	4.2 µM	1/3	1/9
KSSQSVLYESRNKNSVA	WASTRFS	QQYHRLVLM	18 nM	3/3	0/9
KSSISVLYESRNKNSVA	WASTREL	QQYHRFPLS	35 nM	3/3	1/9
KSSQSVLYESRNKNNVA	WVSTRES	QLYHRLPLS	1.8 µM	1/3	2/9
KSSQSVLYNSRNKNSVA	WASTREK	QQYHRLPLH	26 nM	3/3	4/9
KSSQSVMYESRNKNSVN	WAGTRES	QQYHRLPLS	1.7 µM	1/3	2/9
KSSQSFLYESRNKNSVA	GASTRES	QQYHRLTLS	140 pM	3/3	1/9
KSSQSVLYESRNINSVA	WASTRES	QQYERLPLS	170 nM	3/3	0/9
KSSKSVLYEWRNKNSVA	AASTRES	QQYHRLPLS	38 µM	2/3	4/9
KSSQSVLYESRNKNSVA	WAFTYES	QQYHRLPFS	230 nM	1/3	1/9
KSKQSVLYEHRNKCSVA	WASTRES	QQYHRLPLS	32 µM	1/3	1/9
KSSQSVLYEHRNKNSAA	WASTRES	QQYHRLPCS	nd	0/3	0/9
KFSQSVLYESRNKNSVA	WAHHRES	QQYHRLPLS	3.2 nM	3/3	5/9
KSSQSVLYESRNKNSEA	WASTRES	QQYHRTPLD	nd	0/3	0/9
KSSQSVLYEPRCKNSVA	WASTRES	QQCHRLPLS	8.2 nM	3/3	0/9
KSNQSSLYESRNKNSVA	GASTRES	QQYHRLPLS	570 pM	3/3	6/9
KSSASVLYESINKNSVA	WASARES	QQYHRLPLS	26 nM	3/3	0/9
KSSQSVLYTSRNKNSVA	WASTRES	QQGHRLSLS	21 µM	2/3	0/9
KSSQSVLHESRAKNSVA	EASTRES	QQYHRLPLS	1.4 nM	3/3	1/9
KSHQSVLYESRNKNSVA	WASTRES	QQYHRSPHS	100 nM	3/3	3/9
KSSQSVLYESRNKNSVA	WALTRES	QQYHQLPLS	1.9 µM	2/3	1/9
KSSQSVLYESTNKNSVA	WASTRES	QQYMRLPFS	15 nM	3/3	1/9
KSSQHVLYESRNKNSVT	WASTRES	QQYHRLPLS	540 nM	1/3	3/9
KSSQSVVYESRNKNYVA	WASTRVS	QQYHRLPLS	71 nM	3/3	2/9
KSSQSVLYEWRNKNSVA	WASTRES	QQYGRWPLS	12 nM	3/3	1/9

13 of these entries, quoted again:

| CDR-L1 | CDR-L2 | CDR-L3 | Kd | detected | signal with controls |
|---|---|---|---|---|---|
| KSSQSVLYESRNKNSVA | WASTRES | QKYHKLLLS | 31 µM | 1/3 | 4/9 |
| KSSQSVLYASRNKRSVA | WASYRES | QQYHRLPLS | 290 nM | 3/3 | 2/9 |
| KSSQSVLDESRNKNSVA | WASTRES | ATYHRLPLS | 2.7 nM | 3/3 | 1/9 |
| KSSQSVLYESRNKNSVA | WASTYES | QQYHRLTLS | nd | 0/3 | 1/9 |
| KRSQSVLYESRNKNSVA | WASTRMS | QQYHRGPLS | nd | 0/3 | 0/9 |
| KSSQSVQTESRNINSVA | WASTRES | QQYHRLPLS | 7.1 nM | 3/3 | 0/9 |
| KSSQSVLHESRAKNSVA | EASTRES | QQYHRLPLS | 1.4 nM | 3/3 | 1/9 |
| KSSQSVLYESRNKNSVA | WASTRES | QQDHRAPLA | nd | 0/3 | 1/9 |
| KSSQSVLYCSRSKNSVA | WASTYES | QQYHRLPLS | 67 µM | 2/3 | 6/9 |
| KSHQSVLYESRNKNSVA | WASTRES | QQYHRSPHS | 100 nM | 3/3 | 3/9 |
| KSSQSVLYEFRNKNSVV | WASTRES | QQYHRLPES | nd | 0/3 | 1/9 |
| KSSQSVLYEIRNKNSVA | WKSTRGS | QQYHRLPLS | 13 µM | 2/3 | 2/9 |
| KSSQSVVYESRNKNYVA | WASTRVS | QQYHRLPLS | 71 nM | 3/3 | 2/9 |